High-throughput results: PubChem BioAssay, National Center for Advancing Translational Sciences (NCATS)
This is a sample that favours compounds with a hit; in the whole collection about 16% have one here.
DT40 TDP1 CPT = growth inhibition of DT40 Tdp1-/-;hTDP1 cells with camptothecin (screen for TDP1 inhibitors). chicken DT40 Tdp1-/-;hTDP1 cells + 20 nM CPT, ATP luminescence, 48 h. hit rate 12% among 420,000. Potency, µM (doses to about 46.2 µM), most hits filed as inhibitors; also: nearly all actives have a fitted effect of over 55% in size
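Cell growth measured by CellTiter-Glo luminescence after a minimum 48 h, 37 C compound exposure with 20 nM CPT in Tdp1-knockout DT40 cells stably expressing hTDP1, seeded 400/well; qHTS titration format.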
TDP1 block = inhibitors of human tyrosyl-DNA phosphodiesterase TDP1 | Q9NUW8 | recombinant TDP1, AlphaScreen DNA substrate cleavage | Potency, µM (series often up to 130 µM), usual class: inhibitors | hit rate 0.28% among 350,000 | AID 485290; also: nearly all actives have a fitted effect of over 40% in size
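Signal: AlphaScreen proximity between streptavidin donor and anti-FITC acceptor beads on intact substrate. Reaction: Tdp1 1 nM, substrate 15 nM final, 5 min RT after 15 min compound preincubation.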
TDP1 cell noCPT = qHTS for Inhibitors of human tyrosyl-DNA phosphodiesterase 1 (TDP1): qHTS in cells in absence of CPT | Potency, µM (doses to about 46.2 µM), most hits filed as inhibitors | DT40 Tdp1-/- hTDP1 cells, no CPT, ATP luminescence, 48 h | hit rate 15% among 420,000 | AID 686978, 2013; also: nearly all actives have a fitted effect of over 55% in size
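Chicken DT40 Tdp1-/- cells stably complemented with human TDP1 were seeded at 400 cells/well with DMSO in place of 20 nM camptothecin. After compound pinning, cells grew at least 48 hr at 37 °C; viability read by CellTiter-Glo luminescence.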
uPA generation = inhibitors of cell surface uPA generation; Potency, µM (series often up to 38.3 µM), hits mostly inhibitors; cell surface uPA generation assay, qHTS; AID 540303; hit rate 0.31% among 330,000; active = well fitted inhibition curve with a large enough effect; inconclusive = small, poorly fitted or top-dose-only effect; inactive = no such curve, though single readings can be large or run the other way; tested in mouse RAW 264.7 cells; also: nearly all actives have a fitted effect of over 55% in size
miR-21 FLuc = miR-21 reporter, rising signal | HeLa miR-21 FLuc reporter, luciferase, 48 h | Potency, µM (top dose mostly 38.3 µM) | 340,000 tested, under 10 active | AID 2288; active = well fitted rising curve with a large enough effect; inconclusive = small, poorly fitted or top-dose-only effect; inactive = no such curve, though single readings can be large or run the other way;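 further: miR-21 action dims this reporter so a rising signal means less miR-21 action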
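HeLa cells endogenously expressing miR-21, stably carrying CMV-driven firefly luciferase with a downstream miR-21 binding site, 2000 cells/well. Titrations up to approximately 40 uM, 48 hours; luciferase luminescence read.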
A number is an active result; [ ] = another dose, or the depositor's remark. Unless noted, calls follow the shape of the dose curve; as a rule, active = well fitted curve in the direction sought with a large enough effect; inconclusive = small, poorly fitted or top-dose-only effect, or another doubt; inactive = no such curve, though single readings can be large; an effect the other way counts as inactive or inconclusive.

COc1ccc(-n2c(=O)c3ccc(C(=O)NCc4ccc(C)cc4)cc3n(CC(=O)Nc3cccc(F)c3)c2=O)cc1 was read as DT40 TDP1 CPT 13µM, TDP1 block inactive, TDP1 cell noCPT inconclusive and miR-21 FLuc inactive.
Screening O=C(Cn1c(=O)n(-c2ccccc2)c(=O)c2ccc(C(=O)NCc3ccc4c(c3)OCO4)cc21)Nc1ccc(F)cc1 returned DT40 TDP1 CPT inactive, TDP1 block inactive, TDP1 cell noCPT inactive and miR-21 FLuc inactive.
For COc1ccc(S(=O)(=O)Nc2cccc(-n3cnnn3)c2)cc1OC the results were DT40 TDP1 CPT inactive, TDP1 block inactive, TDP1 cell noCPT inactive, uPA generation inactive and miR-21 FLuc inactive.
CC(C)(C)NC(=O)C(c1cccs1)N(C(=O)C(=O)NC1CCCC1)c1ccccc1F (configuration not stated) was read as DT40 TDP1 CPT inactive, TDP1 block inactive, TDP1 cell noCPT inactive and miR-21 FLuc inactive.
`CNC(=O)CC12CC3CC(CC(C3)C1)C2` gave DT40 TDP1 CPT inactive, TDP1 block inactive, TDP1 cell noCPT inactive, uPA generation inactive and miR-21 FLuc inactive.
COc1ccc(-c2c(C)sc(NC(=O)c3ccnn3C)c2C#N)cc1 was read as DT40 TDP1 CPT inactive, TDP1 block inactive, TDP1 cell noCPT inconclusive, uPA generation inactive and miR-21 FLuc inactive.
Screening COc1ccc(C(=O)Nc2sc(C)c(-c3ccccc3)c2C#N)cc1OC returned DT40 TDP1 CPT inconclusive, TDP1 block inactive, TDP1 cell noCPT 21µM, uPA generation inactive and miR-21 FLuc inactive.
Screening Cc1cc(N2CCN(C(C(=O)NC3CCCC3)c3ccco3)CC2)c2ccccc2n1 (configuration not stated) returned DT40 TDP1 CPT 21µM and TDP1 cell noCPT 23µM.
Cc1cc(C(=O)NC2CCCCCC2)c2ccccc2n1 was read as DT40 TDP1 CPT inactive, TDP1 block inactive, TDP1 cell noCPT inactive and uPA generation inactive.
Screening Cc1cc(N2CCN(C(C(=O)NC3CCCC3)c3ccc(F)cc3)CC2)c2ccccc2n1 (configuration not stated) returned DT40 TDP1 CPT 18µM and TDP1 cell noCPT inconclusive.
For CCn1c(SCC(=O)N(C)C)nc2cc(S(=O)(=O)N3CCCCC3)ccc21 the results were DT40 TDP1 CPT inactive, TDP1 block inactive, TDP1 cell noCPT inactive and uPA generation inactive.
CCc1ccc(NC(=O)CC2C(=O)N(c3ccc(C)cc3)C(=O)N2CCc2ccncc2)cc1 (configuration not stated) was read as DT40 TDP1 CPT inconclusive, TDP1 block inactive, TDP1 cell noCPT 23µM, uPA generation inactive and miR-21 FLuc inconclusive.
For COc1ccc(NC(=O)CC2C(=O)N(c3cccc(OC)c3)C(=O)N2CCC2=CCCCC2)cc1 (configuration not stated) the results were DT40 TDP1 CPT inconclusive, TDP1 block inactive, TDP1 cell noCPT 23µM and miR-21 FLuc inactive.
COC(=O)c1ccc(NC(=O)CC2C(=O)N(c3cccc(OC)c3)C(=O)N2Cc2ccco2)cc1 (configuration not stated) was read as DT40 TDP1 CPT 16µM, TDP1 block inactive, TDP1 cell noCPT inconclusive and miR-21 FLuc inactive.
CCOC(=O)c1ccc(NC(=O)CC2C(=O)N(c3cccc(C)c3)C(=O)N2CCOC)cc1 (configuration not stated) was read as DT40 TDP1 CPT inconclusive, TDP1 block inactive, TDP1 cell noCPT inconclusive and miR-21 FLuc inactive.
Screening CCOC(=O)c1ccc(NC(=O)CC2C(=O)N(c3ccccc3)C(=O)N2Cc2ccc(C)cc2)cc1 (configuration not stated) returned DT40 TDP1 CPT inconclusive, TDP1 block inactive, TDP1 cell noCPT 23µM and miR-21 FLuc inactive.
CCOc1ccc(NC(=O)CC2C(=O)N(c3ccc(C)cc3)C(=O)N2CCC2=CCCCC2)cc1 (configuration not stated) was read as DT40 TDP1 CPT inconclusive, TDP1 block inactive, TDP1 cell noCPT inconclusive and miR-21 FLuc inactive.
For COC(=O)c1ccc(NC(=O)CC2C(=O)N(c3ccc(F)cc3)C(=O)N2Cc2ccc(OC)cc2)cc1 (configuration not stated) the results were DT40 TDP1 CPT inconclusive, TDP1 block inactive, TDP1 cell noCPT 18µM and miR-21 FLuc inactive.
CCOc1ccc(NC(=O)CC2C(=O)N(c3ccc(C)cc3)C(=O)N2Cc2ccc(OC)cc2)cc1 (configuration not stated) was read as DT40 TDP1 CPT inconclusive, TDP1 block inactive, TDP1 cell noCPT 23µM and miR-21 FLuc inactive.
CCOc1ccc(NC(=O)CC2C(=O)N(c3ccccc3)C(=O)N2CCc2ccc(OC)cc2)cc1 (configuration not stated) was read as DT40 TDP1 CPT inconclusive, TDP1 block inactive, TDP1 cell noCPT inconclusive and miR-21 FLuc inactive.
COc1cc(NC(=O)CC2C(=O)N(c3cccc(C)c3)C(=O)N2Cc2ccco2)cc(OC)c1 (configuration not stated) was read as DT40 TDP1 CPT inconclusive, TDP1 block inactive, TDP1 cell noCPT 23µM and miR-21 FLuc inactive.
`COc1ccc(NC(=O)CC2C(=O)N(c3cccc(OC)c3)C(=O)N2Cc2ccco2)cc1` (configuration not stated) gave DT40 TDP1 CPT inactive, TDP1 block inactive, TDP1 cell noCPT inactive, uPA generation inactive and miR-21 FLuc inactive.
COc1ccc(CN2C(=O)N(c3ccc(OC)cc3)C(=O)C2CC(=O)Nc2ccccc2)cc1 (configuration not stated) was read as DT40 TDP1 CPT inactive, TDP1 block inactive, TDP1 cell noCPT inconclusive, uPA generation inactive and miR-21 FLuc inactive.
Screening COc1ccc(CCN2C(=O)N(c3ccc(C)cc3)C(=O)C2CC(=O)Nc2ccc(F)cc2)cc1 (configuration not stated) returned DT40 TDP1 CPT inconclusive, TDP1 block inactive, TDP1 cell noCPT 21µM and miR-21 FLuc inactive.
CN1CCc2c(c3c(n2C)CCN(C)[C@H]3c2ccccc2F)[C@@H]1c1ccccc1F was read as TDP1 block inactive and miR-21 FLuc inactive.
For COc1ccc(N(C(=O)c2ccco2)C(C(=O)NC2CCCC2)c2ccc(N3CCOCC3)cc2)c(OC)c1 (configuration not stated) the results were DT40 TDP1 CPT inconclusive, TDP1 cell noCPT inconclusive, uPA generation inactive and miR-21 FLuc inactive.
For COC(C(=O)N/N=C/c1ccc(OCC(=O)N2CCOCC2)cc1)c1ccccc1 (configuration not stated) the results were DT40 TDP1 CPT inactive, TDP1 block inactive[0.0935 µM], TDP1 cell noCPT inactive, uPA generation inactive and miR-21 FLuc inactive.
